The list shows a part of the results, in another mix than the full data. The source made the active and inactive calls. Rule as the data show it: active = inhibition above about 50% (passing the limit was not always enough); inconclusive = no clear call, values can overlap the other calls.
biological target: SUMO-conjugating enzyme UBC9 (Homo sapiens) (UniProt P63279); test: blockers of SAE1/SAE2–UBC9 SUMO transfer – biochemical, HTRF, uHTS, primary screen (AID 2006); settings: HTRF SUMOylation assay, SAE1/SAE2 + UBC9, in vitro; at 35 µM; stronger effect = higher value

Chains of the proteins cited; added tags and fusions are not shown.
UniProt P63279, whole entry, looked up: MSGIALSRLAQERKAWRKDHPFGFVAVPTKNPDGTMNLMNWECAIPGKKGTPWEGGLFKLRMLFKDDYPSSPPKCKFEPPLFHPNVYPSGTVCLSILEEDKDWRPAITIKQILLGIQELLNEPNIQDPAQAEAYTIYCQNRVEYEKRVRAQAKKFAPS

Row | SMILES | inhibition
1 | Cc1ccc(NP(=O)(Oc2cccc(C)c2)Oc2cccc(C)c2)nc1 | inactive: 17.6%
2 | CCOC(=O)NC(Sc1ccccc1)C(Cl)(Cl)Cl (centres undefined) | inactive: -2.1%
3 | CCNC(=S)/N=C(\N)N[N+](=O)[O-] | inactive: 6.4%
4 | O=C(NC1CCS(=O)(=O)C1)NP(=S)(Oc1ccccc1)Oc1ccccc1 (centres undefined) | inactive: 13.2%
5 | O=C(OC1CN2CCC1CC2)c1ccccc1 (centres undefined) | inactive: -1%
6 | CCC(=O)N1C2C3N(C(=O)CC)C1C1N(C(=O)CC)C(C(N1C(=O)CC)N3C(=O)CC)N2C(=O)CC | inactive: 25.3%
7 | COC(=O)c1cc2c(s1)N=C(c1ccccc1)N(C)P2(=O)N1CCOCC1 (centres undefined) | inactive: 22.3%
8 | CC(=O)NC(SC(=S)N(CC(C)C)CC(C)C)C(Cl)(Cl)Cl (centres undefined) | inactive: -0.8%
9 | Cc1ccc(OP(=O)(Nc2ccccn2)Oc2ccc(C)cc2)cc1 | inactive: -23.3%
10 | Cc1ccccc1OP(=O)(Nc1ccccn1)Oc1ccccc1C | inactive: 7.1%
11 | CN(C)C(=O)Oc1noc2ccccc12 | inactive: 4.8%
12 | O=c1c2cc([N+](=O)[O-])ccc2[nH]c2c([N+](=O)[O-])cc([N+](=O)[O-])cc12 | inactive: 13.3%
13 | O=P1(Nc2nc3ccc(Cl)cc3s2)COc2ccccc2O1 (centres undefined) | inactive: 22%
14 | CCOc1ccc(C2=NCC(CBr)S2)cc1 (centres undefined) | inactive: 11.7%
15 | CC(C)(C)C(=O)NC(Sc1ccccc1)C(Cl)(Cl)Cl (centres undefined) | inactive: 2.9%
16 | C[C@@H]1C=CCP(=O)(Oc2ccccc2)O1 (some centres undefined) | inactive: 11.9%
17 | C[C@H]1OP(=O)(Oc2ccccc2)C[C@@H]2O[C@@H]21 (some centres undefined) | inactive: -2.9%

Row | SMILES | inhibition
18 | CC(=O)c1ccc(N2CC2c2ccncc2)cc1 (centres undefined) | inactive: -4.3%
19 | CC(=O)Nc1ccc([As](=O)(O)O)c(O)c1 | inactive: 26.6%
20 | CC(=O)Nc1ccc(Oc2c([N+](=O)[O-])cc([N+](=O)[O-])cc2[N+](=O)[O-])cc1 | inactive: 2%
21 | CC(C)C(=O)NC(Sc1ccccc1)C(Cl)(Cl)Cl (centres undefined) | inactive: 9.5%
22 | O=P(Nc1nccs1)(c1ccccc1)c1ccccc1 | inactive: 10.3%
23 | c1nnnn1CCn1cnnn1 | inactive: 6.7%
24 | O=P(Nc1ccccn1)(c1ccc(Br)cc1)c1ccc(Br)cc1 | inactive: 10.7%
25 | CN(C)C1(CNC(=O)c2ccc(Cl)c(S(N)(=O)=O)c2)CCCCC1 | inactive: -9.8%
26 | O=P(Nc1nc2ccccc2s1)(c1ccccc1)c1ccccc1 | inactive: 23.4%
27 | C[C@H]1OP(=O)(Oc2ccccc2)[C@H](O)[C@H](O)[C@H]1N=[N+]=[N-] (some centres undefined) | inactive: -4.1%
28 | O=[As](O)(c1ccccc1)c1ccc(O)cc1 | inactive: 22.5%
29 | O=[N+]([O-])c1ccc(O)c(/C=N/Nc2ccc([N+](=O)[O-])cc2[N+](=O)[O-])c1 | inactive: 10.8%
30 | CC(=O)NC(SC(=S)N(C)C)C(Cl)(Cl)Cl (centres undefined) | inactive: -5.4%
31 | O=[N+]([O-])c1ncn(CCn2cnc([N+](=O)[O-])n2)n1 | inactive: 7.1%
32 | O=C(OC1CN2CCC1CC2)c1cccc(Cl)c1 (centres undefined) | inactive: -2.9%
33 | Nc1ccc([As](=O)(O)c2ccc([N+](=O)[O-])cc2)cc1 | inactive: 22.3%
34 | C(Cc1nn[nH]n1)Cc1nn[nH]n1 | inactive: 6.8%

Reference: PubChem BioAssay AID2006 (Sanford-Burnham Center for Chemical Genomics, 2009)
